Test: soluble on expression in E. coli; label from the status in PepcDB or PDB records

Row | Sequence | soluble on expression in E. coli
1 | GSHSLKYFHTSVSRPGRGEPRFISVGYVDDTQFVRFDNDAASPRMVPRAPWMEQEGSEYWDRETRSARDTAQIFRVNLRTLRGYYNQSEAGSHTLQWMHGCELGPDRRFLRGYEQFAYDGKDYLTLNEDLRSWTAVDTAAQISEQKSNDASEAEHQRAYLEDTCVEWLHKYLEKGKETLLHLEPPKTHVTHHPISDHEATLRCWALGFYPAEITLTWQQDGEGHTQDTELVETRPAGDGTFQKWAAVVVPSGEEQRYTCHVQHEGLPEPVTLRWKP | soluble
2 | MDNKKRLAYAIIQFLHDQLRHGGLSSDAQESLEVAIQCLETAFGVTVEDSDLALPQTLPEIFEAAATGKEMPQDLRSPARTPPSEEDSAEAERLKTEGNEQMKVENFEAAVHFYGKAIELNPANAVYFCNRAAAYSKLGNYAGAVQDCERAICIDPAYSKAYGRMGLALSSLNKHVEAVAYYKKALELDPDNETYKSNLKIAELKLREAPSPTGGVGSFDIAGLLNNPGFMSMASNLMNNPQIQQLMSGMISGGNNPLGTPGTSPSQNDLASLIQAGQQFAQQMQQQNPELIEQLRSQIRSRTPSASNDDQQELEHHHHHH | soluble
3 | MGHHHHHHSHMAEQLAWLRVLRLDKRSVVKHIGDLLQHRQSLVRSAFRDGTAEVETREKEPPGWGQGQGEGEVGNNSLGLPQGKRPASPALLLPPCMLKSPKRICPVPPVSTVTGDENISDSEIEQYLRTPQEVRDFQRAQAARQAATSVPNPP | not soluble

From the DeepSol protein solubility set
